Values after ≈ are worked out from the molar mass of the structure shown.
Experiments:
[1] = Affinity chromatography on Sepharose-bound d-Ala-d-Ala; settings: Sepharose 4 Fast Flow-d-Ala-d-Ala affinity column, fermentation broth, vancomycin as control
[2] = test system: B. subtilis DSM 10; settings: broth microdilution, cation-adjusted Mueller-Hinton Broth II, ~4 × 10⁵ CFU/mL, 37 °C, 24 h, visible growth; mean of three independent biological replicates, each in technical triplicate

## CN[C@@]1(C)C[C@H](O[C@@H]2[C@H](O)C[C@H](O[C@H]3[C@H](C)O[C@@H](O[C@H]4[C@H](O[C@H]5[C@H](C)O[C@@H](Oc6ccc(C[C@@H](O)C(=O)N[C@H]7CNC(=O)NC[C@@H](C(=O)N[C@H](Cc8ccccc8)C(=O)O)NC(=O)[C@H]([C@H](C)c8c[nH]c9ccc(Cl)cc89)NC7=O)cc6)C[C@]5(C)N)O[C@@H](C)[C@H](O)[C@H]4O)C[C@]3(C)NC)O[C@H]2C)O[C@@H](C)[C@@H]1OC [Saarvienin A, saarvienin A]
[1]
  binding to D‐alanyl‐D‐alanine peptide motif: did not show affinity
[1]; listed as 1
  binding to D‐alanyl‐D‐alanine peptide motif: does not bind
[2]
  MIC, B. subtilis DSM 10: 0.125 µg/mL (≈ 0.0828 µM)
